Experimental data taken from article PMC4306385.

Legend:
Test in all cases: co-sedimentation
[1] = target: A230V variant of cardiac actin (ACTC), filaments
[2] = target: A331P variant of cardiac actin (ACTC), filaments
[3] = target: E361G variant of cardiac actin (ACTC), filaments
[4] = target: E99K variant of cardiac actin (ACTC), filaments
[5] = target: M305L variant of cardiac actin (ACTC), filaments
[6] = target: R312H variant of cardiac actin (ACTC), filaments
[7] = target: Y166C variant of cardiac actin (ACTC), filaments

“N-terminal C0C2 fragment of cardiac myosin binding protein-C (cMyBP-C) (from UniProt O70468 1-448) (domain or fragment)” was tested. Which Kd [1] did it give?
Its Kd is 7.24 µM.

What about the stoichiometry N (mol/mol actin) [1] of the same substance?
Its stoichiometry N (mol/mol actin) is 0.81.

And the Kd [2]?
The Kd was 13.4 µM.

And the stoichiometry N (mol/mol actin) [2]?
The stoichiometry N (mol/mol actin) was 0.91.

And the Kd [3]?
The Kd was 9.17 µM.

What about the stoichiometry N (mol/mol actin) [3] of the same substance?
The stoichiometry N (mol/mol actin) was 0.99.

What about the Kd [4] of the same substance?
The Kd was 6.73 µM.

And the stoichiometry N (mol/mol actin) [4]?
Its stoichiometry N (mol/mol actin) is 1.08.

And the Kd [5]?
Its Kd is 3.57 µM.

What about the stoichiometry N (mol/mol actin) [5] of the same substance?
Its stoichiometry N (mol/mol actin) is 0.68.

And the Kd [6]?
The Kd was 4.51 µM.

What about the stoichiometry N (mol/mol actin) [6] of the same substance?
The stoichiometry N (mol/mol actin) was 0.93.

And the Kd [7]?
The Kd was 11.9 µM.

What about the stoichiometry N (mol/mol actin) [7] of the same substance?
Its stoichiometry N (mol/mol actin) is 0.73.
